Laboratory results from ChEMBL document CHEMBL5108070, “Selective and Cell-Active PBRM1 Bromodomain Inhibitors Discovered through NMR Fragment Screening” (J Med Chem, 2022).

By UniProt entry, the sequences of proteins in these tests, tags left out.
UniProt Q86U86, whole entry: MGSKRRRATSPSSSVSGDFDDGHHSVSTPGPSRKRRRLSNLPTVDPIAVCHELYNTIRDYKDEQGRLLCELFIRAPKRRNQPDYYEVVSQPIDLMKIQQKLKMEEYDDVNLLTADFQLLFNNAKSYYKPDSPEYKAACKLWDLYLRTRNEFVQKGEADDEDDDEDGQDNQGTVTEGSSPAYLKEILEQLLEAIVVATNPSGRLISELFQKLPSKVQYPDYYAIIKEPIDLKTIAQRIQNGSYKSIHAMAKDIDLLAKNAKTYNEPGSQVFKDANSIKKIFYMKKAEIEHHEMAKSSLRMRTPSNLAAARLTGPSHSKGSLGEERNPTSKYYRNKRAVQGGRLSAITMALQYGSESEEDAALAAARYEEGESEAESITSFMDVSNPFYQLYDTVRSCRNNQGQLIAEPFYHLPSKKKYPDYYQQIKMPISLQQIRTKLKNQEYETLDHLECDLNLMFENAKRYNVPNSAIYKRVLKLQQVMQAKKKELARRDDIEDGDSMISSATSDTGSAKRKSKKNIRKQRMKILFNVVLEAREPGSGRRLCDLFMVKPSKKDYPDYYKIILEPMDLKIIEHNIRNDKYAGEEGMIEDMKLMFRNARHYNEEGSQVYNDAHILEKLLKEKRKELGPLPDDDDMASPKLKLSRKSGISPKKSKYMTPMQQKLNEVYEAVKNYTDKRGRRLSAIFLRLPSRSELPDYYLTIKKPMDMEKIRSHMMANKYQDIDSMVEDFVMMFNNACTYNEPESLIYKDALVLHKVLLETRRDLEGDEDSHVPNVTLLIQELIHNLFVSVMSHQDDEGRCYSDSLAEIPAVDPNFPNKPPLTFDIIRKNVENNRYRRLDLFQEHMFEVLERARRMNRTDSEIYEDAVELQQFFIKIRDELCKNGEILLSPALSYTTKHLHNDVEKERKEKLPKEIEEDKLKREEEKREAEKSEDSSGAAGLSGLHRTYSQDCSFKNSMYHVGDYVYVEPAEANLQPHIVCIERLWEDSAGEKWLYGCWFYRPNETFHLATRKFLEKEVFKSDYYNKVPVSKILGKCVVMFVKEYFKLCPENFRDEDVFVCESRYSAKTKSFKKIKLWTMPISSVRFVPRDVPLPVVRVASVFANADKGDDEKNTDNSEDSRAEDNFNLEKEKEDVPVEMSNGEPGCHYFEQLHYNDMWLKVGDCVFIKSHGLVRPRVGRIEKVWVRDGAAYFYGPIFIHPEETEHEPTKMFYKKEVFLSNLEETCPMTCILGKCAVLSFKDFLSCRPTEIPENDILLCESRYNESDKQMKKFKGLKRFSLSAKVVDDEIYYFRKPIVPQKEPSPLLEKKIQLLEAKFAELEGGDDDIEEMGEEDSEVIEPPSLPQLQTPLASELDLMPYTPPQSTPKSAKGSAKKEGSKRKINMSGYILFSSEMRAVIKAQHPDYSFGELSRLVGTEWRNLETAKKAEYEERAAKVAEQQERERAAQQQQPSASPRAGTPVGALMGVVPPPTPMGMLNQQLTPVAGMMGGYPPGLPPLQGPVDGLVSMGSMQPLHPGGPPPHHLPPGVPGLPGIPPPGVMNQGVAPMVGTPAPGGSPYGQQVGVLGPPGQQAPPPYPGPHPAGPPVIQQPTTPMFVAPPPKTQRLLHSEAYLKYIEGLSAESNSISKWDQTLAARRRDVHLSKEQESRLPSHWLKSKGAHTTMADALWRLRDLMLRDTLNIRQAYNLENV

Target: Protein polybromo-1 (Homo sapiens, UniProt Q86U86)
Conditions: dose 100.0 µM

`CN(C)/C=C1\CCn2c1nc(=O)c1c(Cl)cccc12` was tested. Which ΔTm did it give?
Its ΔTm is 11 °C.
